Results as given in patent US20240245795A1, “PREPARATION METHOD AND APPLICATION OF ANTIBODY DRUG CONJUGATE” (priority 2021, published 2024).

Tested on: COLO205 human colon cancer cells
Test: In vivo anti-tumor experiment (1), COLO205 xenograft, low HER2
Design: species or system female nude mice
Settings: 10 mg/kg i.v. on day 0, COLO205 low HER2
Experimental: The efficacy of the combination of the present invention can be measured in vivo, i.e., an allograft or xenograft of cancer cells was implanted in rodents, and the tumors were treated with the combination. Test mice were treated with drugs or controls and monitored for several weeks or longer to measure the time to tumor doubling, log cell killing, and tumor inhibition.
COLO205 human colon cancer cells (ATCC) with low expression of HER2 were suspended in physiological saline. 4×10^7 cells were subcutaneously transplanted into the right flank of female nude mice, which were randomized into groups on day 6. […] As a control group, a PBS buffer-administered group was set.

Kadcyla was tested, and the “tumor growth inhibitory activity” value was “did not show tumor growth inhibitory activity”.
